In US20200165312A1, “COSMETIC COMPOSITION FOR IMPROVING SKIN CONDITIONS COMPRISING FUSION PROTEIN INCLUDING SKIN PENETRATION ENHANCING PEPTIDE” (LG HOUSEHOLD & HEALTH CARE LTD., priority 2017, published 2020):

Conditions: pig, 16 h

VEGF
Remaining amount (%): 100 ± 24%
